Assay [1] concerns the target Interleukin-8 receptors, CXCR1/CXCR2 (Homo sapiens, UniProt P25025+P25024). The assay is described as follows: Antagonist activity at CXCR1/CXCR2 in human PMN cells assessed as inhibition of GROalpha-mediated intracellular calcium release. It is filed as functional, cell-based. For orientation: A change in cytosolic calcium serves as a functional read-out for many receptors and channels.

Protein sequences, listed by entry. Tags and fused reporters are not part of them.
UniProt P25025, whole entry: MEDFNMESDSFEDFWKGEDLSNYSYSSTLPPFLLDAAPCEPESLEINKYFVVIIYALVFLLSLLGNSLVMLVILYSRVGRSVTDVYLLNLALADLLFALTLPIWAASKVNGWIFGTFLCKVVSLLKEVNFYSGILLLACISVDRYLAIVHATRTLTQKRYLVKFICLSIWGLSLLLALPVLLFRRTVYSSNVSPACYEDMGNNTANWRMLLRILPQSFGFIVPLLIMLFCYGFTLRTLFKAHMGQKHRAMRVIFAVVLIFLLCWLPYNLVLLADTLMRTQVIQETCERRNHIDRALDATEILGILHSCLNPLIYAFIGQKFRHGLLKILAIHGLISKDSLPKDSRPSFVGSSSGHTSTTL
UniProt P25024, whole entry: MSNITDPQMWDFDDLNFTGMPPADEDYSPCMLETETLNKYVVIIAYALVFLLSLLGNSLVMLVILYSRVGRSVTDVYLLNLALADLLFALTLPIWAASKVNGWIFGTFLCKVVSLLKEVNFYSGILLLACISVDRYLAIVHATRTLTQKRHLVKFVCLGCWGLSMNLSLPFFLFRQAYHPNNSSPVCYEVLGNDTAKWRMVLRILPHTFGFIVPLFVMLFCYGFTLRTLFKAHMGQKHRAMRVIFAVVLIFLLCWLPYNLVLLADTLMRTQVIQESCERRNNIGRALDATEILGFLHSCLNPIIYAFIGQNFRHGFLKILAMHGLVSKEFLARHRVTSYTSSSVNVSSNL

Assay [2] addresses C-X-C chemokine receptor type 1 (Homo sapiens, UniProt P25024). The assay is described as follows: Inhibition of CXCR1 (unknown origin) transfected with RBL cells. The class given is cell-based.
Assay [3] concerns the target T1, C-X-C chemokine receptor type 2 (Homo sapiens, UniProt P25025). Nature of the assay: Inhibition of CXCR2 (unknown origin) transfected with RBL cells. It is filed as cell-based. The method, boiled down: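 RBL cells stably transfected with CXCR2 were used to measure antagonist activity at the receptor.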
In assay [4] the target is T1, C-X-C chemokine receptor type 2. Nature of the assay: Inhibition of CXCR2 (unknown origin) expressed in PathHunter celline by beta-arrestin assay. A digest of the protocol:
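Antagonist-mode PathHunter β-arrestin recruitment assay in CXCR2-expressing cells. SB225002 served as the reference antagonist. Read-out is an IC50.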

This is an account of results in ChEMBL document CHEMBL3425456, “Boronic acid-containing CXCR1/2 antagonists: Optimization of metabolic stability, in vivo evaluation, and a proposed receptor binding model” (Bioorg Med Chem Lett, 2015).

SMILES strings stand for the structures. pIC50: −log10 of the molar value.

The IC50 is the midpoint of a concentration-inhibition curve. One may read the pIC50 as −log10 of the IC50, conventionally taken in molar units. Low readings indicate a large IC50, high ones a small IC50. For `O=C(Nc1ccc(F)cc1)c1ccc(SCc2cc(OC(F)(F)F)ccc2B(O)O)nc1`, in assay [1], the IC50 turned out to be 22 nM. Also, the pIC50 in assay [2] was 7.51; in assay [3], 7.68; in assay [4], 6.89.
